The record followed here is publication PMC4838890, “Dynamic and flexible H3K9me3 bridging via HP1β dimerization establishes a plastic state of condensed chromatin” (Nature Communications, 2016).

Amino acid sequences for entries named in this document (tags omitted).
UniProt P83916, whole entry: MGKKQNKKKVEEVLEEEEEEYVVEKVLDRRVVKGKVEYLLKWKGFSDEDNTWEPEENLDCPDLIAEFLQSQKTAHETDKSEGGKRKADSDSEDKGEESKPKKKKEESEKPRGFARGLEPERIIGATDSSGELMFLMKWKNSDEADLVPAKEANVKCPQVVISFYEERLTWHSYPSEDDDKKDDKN

The target in assay [1] is free H3K9me3 tail peptide. Description: ITC; 1.8 mM hHP1β injected into 60 μM H3 peptides, nucleosomes or oligonucleosomal arrays; 25°C; 10 mM triethanolamine pH 7.5, 150 mM NaCl, 0.1 mM EDTA; apparent; one set of identical sites.
Assay [2] deals with biotinylated H3K9me3 peptide (histone H3 aa 1-20) (UniProt P84233). The experiment in a line: SPR; biotinylated ligands on streptavidin (SA) chips, hHP1β proteins injected; 298 K; 10 mM triethanolamine pH 7.5, 150 mM NaCl, 0.1 mM EDTA, 1 mM DTT, 0.005% Tween-20; steady-state analysis; apparent.

“hHP1β chromo domain (CD) (domain or fragment)”: the values for the Kd in assay [1] and in assay [2] were 3.3 µM and 6.3 µM, respectively.
Turning to “human HP1β wild type (hHP1β WT) (from UniProt P83916 1-185) (natural protein)”, in assay [1], the Kd is 3.3 µM.
